In the assay the target is rNaV1.3 channels (rat, UniProt P08104 1-1951). As to the kind of experiment: cell-based or functional assay.

Sequences of proteins named here, by UniProt entry; tags and fusion partners are left off.
UniProt P08104, whole entry: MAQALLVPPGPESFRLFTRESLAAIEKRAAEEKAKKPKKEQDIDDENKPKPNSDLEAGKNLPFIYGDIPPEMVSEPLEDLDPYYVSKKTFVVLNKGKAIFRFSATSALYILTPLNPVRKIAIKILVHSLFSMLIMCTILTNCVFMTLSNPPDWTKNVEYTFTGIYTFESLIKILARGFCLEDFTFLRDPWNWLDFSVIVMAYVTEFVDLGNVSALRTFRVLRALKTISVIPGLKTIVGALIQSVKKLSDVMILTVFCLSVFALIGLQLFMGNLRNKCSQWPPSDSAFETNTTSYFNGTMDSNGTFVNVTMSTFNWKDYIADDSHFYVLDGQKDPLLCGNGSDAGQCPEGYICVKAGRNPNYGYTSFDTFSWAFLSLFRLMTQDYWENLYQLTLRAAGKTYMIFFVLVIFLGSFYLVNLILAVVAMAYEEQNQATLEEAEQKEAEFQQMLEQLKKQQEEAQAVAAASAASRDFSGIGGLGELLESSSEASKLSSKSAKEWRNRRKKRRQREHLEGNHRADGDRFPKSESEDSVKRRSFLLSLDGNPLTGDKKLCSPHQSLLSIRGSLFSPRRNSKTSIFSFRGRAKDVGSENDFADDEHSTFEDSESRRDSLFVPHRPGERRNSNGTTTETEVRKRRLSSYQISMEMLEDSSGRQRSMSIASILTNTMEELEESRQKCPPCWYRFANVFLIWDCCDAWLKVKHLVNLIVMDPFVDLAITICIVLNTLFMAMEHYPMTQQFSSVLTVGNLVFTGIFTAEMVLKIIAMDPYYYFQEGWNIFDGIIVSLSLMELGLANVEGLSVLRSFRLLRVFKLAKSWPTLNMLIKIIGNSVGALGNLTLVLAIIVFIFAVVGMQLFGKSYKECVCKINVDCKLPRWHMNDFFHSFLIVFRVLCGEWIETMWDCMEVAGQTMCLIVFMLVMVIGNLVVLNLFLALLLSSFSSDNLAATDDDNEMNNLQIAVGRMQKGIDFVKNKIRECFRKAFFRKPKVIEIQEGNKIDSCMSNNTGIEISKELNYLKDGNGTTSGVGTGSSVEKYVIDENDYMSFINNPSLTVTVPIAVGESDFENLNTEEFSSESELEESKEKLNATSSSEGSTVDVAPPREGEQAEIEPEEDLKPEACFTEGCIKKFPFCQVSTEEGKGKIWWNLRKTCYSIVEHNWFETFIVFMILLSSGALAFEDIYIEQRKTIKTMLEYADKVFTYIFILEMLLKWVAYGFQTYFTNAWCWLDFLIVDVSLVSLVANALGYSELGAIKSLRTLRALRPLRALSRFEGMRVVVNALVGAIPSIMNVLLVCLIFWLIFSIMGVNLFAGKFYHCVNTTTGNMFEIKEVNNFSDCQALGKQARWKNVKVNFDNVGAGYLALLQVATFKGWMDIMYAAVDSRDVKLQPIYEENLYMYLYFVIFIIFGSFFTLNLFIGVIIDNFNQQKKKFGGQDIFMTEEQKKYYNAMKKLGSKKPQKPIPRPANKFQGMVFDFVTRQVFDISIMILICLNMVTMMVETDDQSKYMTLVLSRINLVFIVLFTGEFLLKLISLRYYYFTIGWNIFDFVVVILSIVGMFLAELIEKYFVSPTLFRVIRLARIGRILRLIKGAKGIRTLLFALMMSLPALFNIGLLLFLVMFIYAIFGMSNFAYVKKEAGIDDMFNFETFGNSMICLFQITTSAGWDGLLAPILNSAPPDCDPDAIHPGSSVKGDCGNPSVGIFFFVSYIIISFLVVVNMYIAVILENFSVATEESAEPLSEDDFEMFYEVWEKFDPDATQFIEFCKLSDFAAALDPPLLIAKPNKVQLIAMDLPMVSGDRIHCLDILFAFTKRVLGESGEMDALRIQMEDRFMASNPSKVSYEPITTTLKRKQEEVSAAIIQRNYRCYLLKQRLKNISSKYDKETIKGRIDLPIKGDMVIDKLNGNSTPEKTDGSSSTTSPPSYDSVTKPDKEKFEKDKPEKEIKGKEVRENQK

For the molecule ACKGLFVTCTPGKDECCPNHVCSSKHKWCKYKT (C-terminal amidation; three disulphide bridges (probably C1-C4, C2-C5, C3-C6)) [Peptide D], the “IC50 Nav1.3 (µM); inhibition of channel current, patch clamp” value stood at 0.16 µM.

Source of the values: patent US20110065647A1 (BIOSEARCH 2007, published 2011).
